In US10682371B2, “Small molecule conjugates specifically activated in tumor microenvironment for targeting and use thereof” (priority 2014, dated 2020):

Experiments:
asparagine endopeptidase = biological target: T1, asparagine endopeptidase (Homo sapiens, UniProt Q99538); settings: S1-S6, 1 mg/ml; 10 μg/ml acidified asparagine endopeptidase; 37°
T1 sequence (Q99538 26-323 limits assumed): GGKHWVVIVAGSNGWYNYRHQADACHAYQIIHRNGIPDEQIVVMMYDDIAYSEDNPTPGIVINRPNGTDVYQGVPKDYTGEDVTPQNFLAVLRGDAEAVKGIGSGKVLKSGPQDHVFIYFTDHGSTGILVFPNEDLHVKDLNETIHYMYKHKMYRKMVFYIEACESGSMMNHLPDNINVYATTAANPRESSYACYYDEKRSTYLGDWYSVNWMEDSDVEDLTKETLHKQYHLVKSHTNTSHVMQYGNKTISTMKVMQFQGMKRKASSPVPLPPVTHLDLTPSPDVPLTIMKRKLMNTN
Experimental: Reduction of reactant and increase of product were detected by HPLC, thereby comparing the activation efficiency of these compounds.
(§1) When R1 is 2-(2-Methoxyethoxy)Acetyl, and R3 is Ala, activation study and efficacy study were carried out by using compounds having different cleavable linker. The study methods are identical to those in Examples 10, 11 and 12. The in vitro activation efficiency was tested by asparagine endopeptidase and the tumor inhibition rate was tested by using human breast cancer MDA-MB231 model.

[1] = test system: Human chronic leukemia K562 tumor tissue homogenate; assay type: biochemical; settings: Human chronic leukemia K562 tumor tissue homogenate (30 μg/ml); 1 mg/ml compound
Experimental: (§2) At 37 °C, sample compounds were added into 100 μg acidized tumor tissue homogenates (pH6.0) in a concentration of 1 mg/ml.
(§3) […], sample compounds were added into 100 μg acidized tumor tissue homogenates (pH6.0) in a concentration of 1 mg/ml.
(§4) At 37 °C, sample compounds were added into 100 μg acidized tumor tissue homogenates in a concentration of 1 mg/ml.
(§5) In the experiments, at 37 °C, compounds were added into proteases in 100 μg acidized tumor tissue homogenates in a concentration of 1 mg/ml. […] Meanwhile certain compounds produced in the screening were compared and their activation efficiency in same tissue was analyzed.
(§6) At 37° C., compounds were added into proteases in 100 μg acidized tumor tissue homogenates in a concentration of 1 mg/ml.

[2] = test system: Human colon cancer HT-29 tumor tissue homogenate; assay type: biochemical; settings: Human colon cancer HT-29 tumor tissue homogenate (30 μg/ml); 1 mg/ml compound
Experimental: as §2, §3, §4, §5, §6

[3] = test system: Human fibrosarcoma HT-1080 tumor tissue homogenate; assay type: biochemical; settings: Human fibrosarcoma HT-1080 tumor tissue homogenate (30 μg/ml); 1 mg/ml compound
Experimental: as §2, §3, §4, §5, §6

[4] = test system: Human liver cancer Hepg2 tumor tissue homogenate; assay type: biochemical; settings: Human liver cancer Hepg2 tumor tissue homogenate (30 μg/ml); 1 mg/ml compound
Experimental: as §2, §3, §4, §5, §6

[5] = test system: Human non-small cell lung cancer A549 tumor tissue homogenate; assay type: biochemical; settings: Human non-small cell lung cancer A549 tumor tissue homogenate (30 μg/ml); 1 mg/ml compound
Experimental: as §2, §3, §4, §5, §6

[6] = test system: Human ovarian cancer SK-OV-3 tumor tissue homogenate; assay type: biochemical; settings: Human ovarian cancer SK-OV-3 tumor tissue homogenate (30 μg/ml); 1 mg/ml compound
Experimental: as §2, §3, §4, §5, §6

[7] = test system: Human pancreatic cancer Panc-1 tumor tissue homogenate; assay type: biochemical; settings: Human pancreatic cancer Panc-1 tumor tissue homogenate (30 μg/ml); 1 mg/ml compound
Experimental: as §2, §3, §4, §5, §6

[8] = test system: Human prostate cancer PC-3 tumor tissue homogenate; assay type: biochemical; settings: Human prostate cancer PC-3 tumor tissue homogenate (30 μg/ml); 1 mg/ml compound
Experimental: as §2, §3, §4, §5, §6

[9] = test system: Human renal cancer OS-RC-2 tumor tissue homogenate; assay type: biochemical; settings: Human renal cancer OS-RC-2 tumor tissue homogenate (30 μg/ml); 1 mg/ml compound
Experimental: as §2, §3, §4, §5, §6

tumor tissue homogenates = assay type: biochemical
Experimental: as §2, §3, §4, §5, §6

[10] = test system: Human breast cancer MDA-MB231 cells; assay type: in vivo, nude mice
Experimental: 1) Human breast cancer MDA-MB231 cells were purchased from American type culture collection (ATCC) and identified according the specification provided by ATCC. Cells were cultivated in […] (DMEM culture medium) containing 10% fetal bovine serum at 37° C. and 5% CO2. The cells were passaged for every three days and cells within the 15th passage were used.
2) Production of tumor. 5×10^6 MDA-MB231 cells were subcutaneously injected to the back of the nude mice. Mice were randomly grouped after the tumor reached at least 100 mm^3. Then treatment began and the day on which the treatment began was day 1.
3) Course of treatment. […] The drugs were administered once weekly for four weeks.
as §1, with “model. […]” for “model.”

[11] = MDA-MB231, nude mice, IV 13.2 μmol/kg once weekly for four weeks, Day 10
[12] = MDA-MB231, nude mice, IV 13.2 μmol/kg once weekly for four weeks, Day 24

4-N—(N—(N—(N-(2-(2-methoxyethoxy) acetyl-L-alanyl)-L-alanyl)-L-asparaginyl)-amino benzyl alcohol-camptothecin-carbonic acid diester [Compound S2]
Activation Efficiencies (%) (asparagine endopeptidase): 87.5%
Activation Efficiencies (%) [1]: 63.7%
Activation Efficiencies (%) [2]: 78.3%
Activation Efficiencies (%) [3]: 75.6%
Activation Efficiencies (%) [4]: 63.7%
Activation Efficiencies (%) [5]: 68.3%
Activation Efficiencies (%) [6]: 74.6%
Activation Efficiencies (%) [7]: 68.4%
Activation Efficiencies (%) [8]: 75.4%
Activation Efficiencies (%) [9]: 53.6%
Activation efficiency by tumor tissue, in words (tumor tissue homogenates): very high activation efficiency
Inhibitory rate on tumor (%) Day 10 [10, 11]: 81%
Size of Tumor (mm^3) Day 10 [10, 11]: 59.35 ± 35.53 mm^3
Inhibitory rate on tumor (%) Day 24 [10, 12]: 91%
Size of Tumor (mm^3) Day 24 [10, 12]: 89.53 ± 65.45 mm^3
Effect on tumor growth, in words ([10]; compared to control, camptothecin, capecitabine and daunorubicin groups): strong inhibitory effect on tumor growth
